Columns and labels:
Assay type in all cases: cell-based
[1] = target: T1, human μOR receptor fused to YFP (Homo sapiens, UniProt P35372)
SNAP-μOR receptor = SNAP-μOR receptor (Homo sapiens, UniProt P35372)
[2] = target: T1, human μOR receptor fused to YFP; remark: listed apart in the source

Chains of the proteins cited; added tags and fusions are not shown.
UniProt P35372, whole entry: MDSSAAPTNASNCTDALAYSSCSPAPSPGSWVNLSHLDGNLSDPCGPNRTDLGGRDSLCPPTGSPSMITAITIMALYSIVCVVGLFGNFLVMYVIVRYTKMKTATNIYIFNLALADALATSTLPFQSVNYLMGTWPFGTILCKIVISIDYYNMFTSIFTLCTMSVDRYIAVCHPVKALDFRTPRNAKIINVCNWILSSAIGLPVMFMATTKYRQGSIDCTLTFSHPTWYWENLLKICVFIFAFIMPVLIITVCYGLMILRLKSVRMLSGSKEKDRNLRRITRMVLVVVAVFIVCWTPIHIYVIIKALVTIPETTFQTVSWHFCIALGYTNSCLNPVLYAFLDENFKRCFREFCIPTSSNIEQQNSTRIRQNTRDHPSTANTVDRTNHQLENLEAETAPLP

[D-Ala^2, N-Me-Phe^4, Gly^5-ol]-Enkephalin acetate salt [DAMGO]
comparable efficacies: Recruitment of GRK2/5 (response) [1] | μOR internalization (response) (SNAP-μOR receptor) | Recruitment of β-arrestin-1/2 (response) [2]
